# Source: PMC2693926
# “And” between values parts separate entries of the source, which are not always exact repeats. Identical values can stand only once.
# Molecular target: sarin^nonaged-hAChE (Homo sapiens, UniProt P22303)
# Assay: Reactivation kinetics of sarin-inhibited hAChE (discontinuous method)
smiles,measurement,setting,value
NC(=O)c1cc[n+](CCC[n+]2ccc(/C=N/O)cc2)cc1.[Br-].[Br-],reactivation effectiveness compared with HI-6,,less effective
same,kr hAChE Sarin,"mean±S.D. of 2–4 determinations, buffer condition as reported in [8]",0.054 min^−1 and 0.054±0.011 ^c min^−1
